Patent US9303005B2, “Use of dibenzofuranone derivatives to inhibit kinases” (priority 2010, dated 2016)

Sequences of proteins named here, by UniProt entry; tags and fusion partners are left off.
UniProt P68400, whole entry: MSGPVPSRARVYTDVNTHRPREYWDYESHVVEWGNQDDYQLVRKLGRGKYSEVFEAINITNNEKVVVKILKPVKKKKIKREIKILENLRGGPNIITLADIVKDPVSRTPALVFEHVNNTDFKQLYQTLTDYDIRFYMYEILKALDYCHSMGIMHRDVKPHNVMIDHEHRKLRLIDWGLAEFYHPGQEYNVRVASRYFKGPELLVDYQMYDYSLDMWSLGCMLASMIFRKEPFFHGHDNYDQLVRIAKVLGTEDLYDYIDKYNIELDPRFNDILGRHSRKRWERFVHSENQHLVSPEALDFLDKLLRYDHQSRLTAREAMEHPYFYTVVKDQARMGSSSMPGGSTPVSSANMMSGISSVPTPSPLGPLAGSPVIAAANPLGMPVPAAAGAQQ

Assays:
CK2 = conditions: prior-art value; read-out: IC50 (CK2, literature); cited from earlier work
CK2 holoenzyme = CK2 holoenzyme (Homo sapiens (Human), UniProt P68400); test: capillary electrophoretic CK2 inhibition/activity test (E-peptide substrate); format: biochemical; conditions: ten minutes pre-incubation

Row | IC50 (CK2 holoenzyme) [nM] | SMILES | IC50 (CK2) [nM]
1 | – | CN(C)c1nc2c(Br)c(Br)c(Br)c(Br)c2[nH]1 [DMAT, 2-dimethylamino-4,5,6,7-tetrabromobenzimidazole] | 140
2 | 200 | CC(C)=CC(=O)c1oc2c(Cl)c(Cl)c(O)c(C#N)c2c1N [Ric151] | –
